Assay: Pharmacokinetic study in healthy adults of single vs. multiple oral doses of colchicine tablets (Example 1);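 note: Single-dose and multiple-dose periods given to the same subjects, with a 14-day washout between the two periods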
Assay type: in vivo, human
Conditions: multiple (b.i.d.) oral doses colchicine 0.6 mg for 10 days, Day 25, healthy adults N=13, plasma

Structure (SMILES): COc1cc2c(c(OC)c1OC)-c1ccc(OC)c(=O)cc1[C@@H](NC(C)=O)CC2 [Colchicine, (−)-N-[(7S,12aS)-1,2,3,10-tetramethoxy-9-oxo-5,6,7,9-tetrahydrobenzo[a]heptalen-7-yl]-acetamide]
- Cmin, MEAN: 0.90651 ng/mL
